Apparent affinities of Ab-14 variants for a coronavirus HR2 peptide

The target is the same throughout: PDVDLGDISGINAS, from the HR2 region of SARS-CoV-2 spike.

Parent: Ab-14, a human scFv built as VH, a (GGGGS)3 linker, VL. Only the CDRs of the light chain vary.
VH: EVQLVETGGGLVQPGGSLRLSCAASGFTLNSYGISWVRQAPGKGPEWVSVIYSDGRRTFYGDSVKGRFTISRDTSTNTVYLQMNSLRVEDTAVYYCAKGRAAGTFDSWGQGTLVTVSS
VL: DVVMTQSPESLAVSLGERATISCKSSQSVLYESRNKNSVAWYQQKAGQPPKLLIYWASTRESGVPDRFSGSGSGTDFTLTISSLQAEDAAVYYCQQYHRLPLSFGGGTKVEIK

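The parent was found by panning a naive human phage display library on the peptide. Variants in AAYL50 differ from the parent at up to three CDR positions; double and triple changes were sampled at random. The assay is AlphaSeq: two haploid yeast populations carry antibody and antigen on their surface. Pairs that bind mate more often; barcode pairs of the diploids are counted by sequencing. A regression on co-assayed BCL2-family reference pairs converts the normalised counts of each replicate to an apparent Kd. The assay was run in three technical replicates.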

Changes read parent residue, position, new residue, counted from the first residue of the VL shown.
Numbers give log10(Kd / nM), so 0 is 1 nM and 3 is 1 µM. Smaller is tighter.
The mean shown is taken over the replicates in which the pair was detected.
An entry "n.d." has no value in the source: the pair was not observed among the diploids in that replicate. This suggests poor binding but is not conclusive.
For reference, the parent read 0.65 as the reference entry and 1.68 as a member of this library.
Nonspecific signal, from three strains lacking the peptide, appeared in 18% of pairings of library AAYL50, centred on 4.19 (5% of these signals below 2.99); values are not corrected for it. The control count says in how many pairings with the empty strains this scFv gave a signal, with their mean in brackets.

replicates, log10 nM	log10 Kd (nM), mean	signal with controls	changes
n.d. / n.d. / n.d.	n.d.	0/9	E32V R34I
3.43 / n.d. / n.d.	3.43	2/9 (3.79)	Y31K V39Q S103A
0.26 / 0.56 / 0.46	0.43	0/9	K36E S62V
0.22 / 0.43 / 0.27	0.30	0/9	S25Q N35Q E61H
1.03 / 0.57 / 0.61	0.74	0/9	S26W S28N W56K
1.29 / 1.45 / 1.26	1.33	0/9	Y31W K36I L102A
n.d. / n.d. / n.d.	n.d.	0/9	Y31V S33A P101I
n.d. / n.d. / n.d.	n.d.	0/9	K36V N37K V39P
3.13 / 4.21 / n.d.	3.67	1/9 (3.02)	N35F K36C E61H
4.08 / 3.55 / n.d.	3.82	0/9	R60K R99Y
n.d. / n.d. / n.d.	n.d.	0/9	S58D Q95L R99H
n.d. / n.d. / 5.71	5.71	2/9 (4.68)	S28H S38H H98P
2.19 / 1.83 / 2.04	2.02	4/9 (4.69)	V29C N35K S62A
n.d. / n.d. / n.d.	n.d.	1/9 (3.67)	V29E V39E Y97C
3.97 / 3.55 / n.d.	3.76	1/9 (4.12)	S26I L30P A57V
3.34 / n.d. / n.d.	3.34	2/9 (3.47)	E32R A57V S62W
1.09 / 1.08 / 1.12	1.10	1/9 (3.55)	R34V Y97H L100H
n.d. / n.d. / n.d.	n.d.	3/9 (4.34)	K24L N35Y Y97T
n.d. / n.d. / 4.50	4.50	1/9 (2.95)	N37T A57P S62V
1.05 / 1.27 / 1.29	1.20	2/9 (3.80)	K24S S28L S33A
n.d. / 3.31 / n.d.	3.31	3/9 (4.80)	S26F L102Y
n.d. / n.d. / n.d.	n.d.	1/9 (2.45)	Q27S R34K L100H
n.d. / 3.77 / 6.00	4.89	4/9 (4.55)	L30H V39H L100R
2.21 / 2.20 / 2.64	2.35	0/9	Q27V N35I S62I
2.51 / 2.29 / 2.68	2.49	3/9 (5.59)	R60H H98A R99T
n.d. / 4.22 / n.d.	4.22	0/9	Q27M Y31K L102N
n.d. / n.d. / n.d.	n.d.	2/9 (2.49)	E32Y R34L N37G
0.02 / 0.33 / 0.23	0.19	2/9 (5.81)	W56A Q96T
0.46 / 0.61 / 0.56	0.55	2/9 (4.26)	L30W Y31A Q96A
n.d. / 3.74 / 3.89	3.82	4/9 (4.13)	S25E S58P
n.d. / n.d. / n.d.	n.d.	0/9	K36E N37P Q95P
n.d. / n.d. / n.d.	n.d.	0/9	E32T V39K P101L
n.d. / n.d. / n.d.	n.d.	1/9 (4.17)	V29D S58R
1.79 / 1.70 / 2.04	1.84	4/9 (4.27)	E32M R34C A57G

The opening 3 entries, copied out:

changes,"replicates, log10 nM","log10 Kd (nM), mean",signal with controls
E32V R34I,n.d. / n.d. / n.d.,n.d.,0/9
Y31K V39Q S103A,3.43 / n.d. / n.d.,3.43,2/9 (3.79)
K36E S62V,0.26 / 0.56 / 0.46,0.43,0/9

From the AlphaSeq antibody data of Engelhart et al. 2022 (doi:10.1038/s41597-022-01779-4), copy in the FLAb collection.